Test system: isolated rat bladder
Assay: tissue or blood
Details: read-out: Functional Assay pKB (converted)

**Q.** With `Cc1ccc(O)c([C@H](CCN(C(C)C)C(C)C)c2ccccc2)c1` [Tolterodine] as the compound, how does the Kb read?
**A.** 1.29 nM

Reference: US7465751B2 (priority 2002, dated 2008)
